Values of other authors in patent publication US20220380431A1, “GLYCOPEPTIDE ANALOGS OF SECRETIN FAMILY PEPTIDES” (ARIZONA BOARD OF REGENTS ON BEHALF OF THE UNIVERSITY OF …, priority 2017, published 2022).

The chains behind the UniProt entries cited, without tags or fusion partners. Residues count along the entry.
UniProt P32241, 31-457: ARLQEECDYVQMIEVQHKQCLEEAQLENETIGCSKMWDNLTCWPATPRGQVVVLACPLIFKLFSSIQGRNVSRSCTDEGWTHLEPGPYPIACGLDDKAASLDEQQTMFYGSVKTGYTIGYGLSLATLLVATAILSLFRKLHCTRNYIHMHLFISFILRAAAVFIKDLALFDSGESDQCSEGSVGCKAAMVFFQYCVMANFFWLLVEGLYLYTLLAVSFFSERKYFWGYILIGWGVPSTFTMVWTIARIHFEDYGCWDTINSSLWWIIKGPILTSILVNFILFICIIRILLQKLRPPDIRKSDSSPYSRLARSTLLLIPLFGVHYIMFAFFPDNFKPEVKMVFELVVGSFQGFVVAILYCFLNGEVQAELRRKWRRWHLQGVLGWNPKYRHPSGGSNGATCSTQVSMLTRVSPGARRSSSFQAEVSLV

Tests used:
Conditions in all cases: background statement; cited from earlier work
PAC1 = target: T1, PAC1 (Homo sapiens, UniProt P41586)
T1 sequence (P41586 21-468): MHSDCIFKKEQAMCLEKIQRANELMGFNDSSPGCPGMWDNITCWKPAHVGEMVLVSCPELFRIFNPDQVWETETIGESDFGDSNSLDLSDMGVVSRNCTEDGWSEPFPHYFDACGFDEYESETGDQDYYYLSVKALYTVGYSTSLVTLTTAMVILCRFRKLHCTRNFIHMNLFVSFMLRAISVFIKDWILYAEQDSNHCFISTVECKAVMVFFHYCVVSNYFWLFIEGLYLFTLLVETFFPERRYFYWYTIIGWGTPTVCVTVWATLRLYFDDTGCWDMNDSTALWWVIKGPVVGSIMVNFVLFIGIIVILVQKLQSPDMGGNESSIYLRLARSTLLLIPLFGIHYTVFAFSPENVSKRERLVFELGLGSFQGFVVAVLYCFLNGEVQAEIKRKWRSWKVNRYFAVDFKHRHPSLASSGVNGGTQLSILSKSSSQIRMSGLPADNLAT

VPAC1 = VPAC1 (Homo sapiens, UniProt P32241)
VPAC2 = target: T2, VPAC2 (Homo sapiens, UniProt P41587)
T2 sequence (P41587 24-438): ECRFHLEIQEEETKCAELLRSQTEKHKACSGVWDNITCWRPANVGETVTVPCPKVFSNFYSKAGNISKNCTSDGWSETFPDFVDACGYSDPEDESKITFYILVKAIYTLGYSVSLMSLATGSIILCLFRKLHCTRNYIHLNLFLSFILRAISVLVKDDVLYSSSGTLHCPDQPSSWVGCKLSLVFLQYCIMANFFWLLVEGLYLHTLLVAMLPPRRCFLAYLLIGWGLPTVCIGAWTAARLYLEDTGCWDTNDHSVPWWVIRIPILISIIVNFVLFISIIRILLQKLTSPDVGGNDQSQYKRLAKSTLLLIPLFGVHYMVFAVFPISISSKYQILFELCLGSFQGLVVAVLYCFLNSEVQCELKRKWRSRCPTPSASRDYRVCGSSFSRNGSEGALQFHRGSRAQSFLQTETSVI

HSDAVFTDNY10TRLRKQMAVK20KYLNSILN [VIP]
activity at the PAC1 receptor relative to PACAP (PAC1): several orders of magnitude less active
activation of VPAC1 receptor relative to PACAP (VPAC1): equally to the PACAP ligand
activation of VPAC2 receptor relative to PACAP (VPAC2): equally to the PACAP ligand
